The values that follow come from patent publication US6004972A, “Therapeutic process for the treatment of the pathologies of type II diabetes” (The Board of Supervisiors of Louisiana State University and …, priority 1998, dated 1999).

This assay has as its system noninsulin dependent (Type II) diabetes. The experiment in a line: Timed oral bromocriptine in fifteen persons with noninsulin dependent (Type II) diabetes (Example 5). The assay is classed as in vivo, human. The following applies: subjects receiving insulin (7), 4-8 weeks. As to the method: Fifteen persons, diagnosed with noninsulin dependent (Type II) diabetes, were treated with bromocriptine to determine the effects of the treatments on body fat and hyperglycemia. […]
Bromocriptine was taken orally daily at times calculated to reset circadian hormone rhythms to phase relationships that cause loss of body fat. Generally, bromocriptine was administered in the morning within 5 hours after awakening. Nausea was usually avoided by starting with the lower dosage (1.25 mg) for 2-3 days and then raising the dosage levels to 2.5 mg daily. Only mild nausea was observed by less that 10% of the participants and was transient, lasting only for the first few days. The participants were carefully instructed not to alter their daily activity or eating habits during the course of treatment.
Skinfold thickness was measured on the left side of the body by a trained anthropometrist in four regions: biceps, triceps, subscapular, and suprailiac, following the recommendations of the International Biological Program. Because of its frequent use, percent body fat was estimated from the common logarithm of the sum of the four skinfolds, using the equations of Durnin and Rahman and of Siri. […] Blood pressure was also determined at these times. Morning fasting plasma glucose in the diabetic group was determined initially and after 4-8 weeks.

The structures appear in SMILES notation.

For `CC(C)C[C@H]1C(=O)N2CCC[C@H]2[C@]2(O)O[C@](NC(=O)[C@@H]3C=C4c5cccc6[nH]c(Br)c(c56)C[C@H]4N(C)C3)(C(C)C)C(=O)N12` [bromocriptine, 2-bromo-alpha-ergocryptine], where the note is “initial 182 ± 9”, the “Total Body Weight, final” value is reported as 182 ± 10 pounds. Also, the “Plasma Glucose, final (fasting)” value (initial 283 ± 14, p < 0.05) was found to be 184 ± 22 mg/dL.
